Antibody variant affinities, Ab-14 heavy chain, assay 1

Target: peptide PDVDLGDISGINAS, taken from heptad repeat 2 (HR2) of SARS-CoV-2 spike.

Ab-14 is the parent antibody, in scFv form: VH, then the linker GGGGSGGGGSGGGGS, then VL. The light chain is unchanged in all variants.
VH: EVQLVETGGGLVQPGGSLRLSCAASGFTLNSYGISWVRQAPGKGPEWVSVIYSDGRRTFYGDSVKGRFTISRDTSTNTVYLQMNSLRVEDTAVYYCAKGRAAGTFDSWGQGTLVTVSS
VL: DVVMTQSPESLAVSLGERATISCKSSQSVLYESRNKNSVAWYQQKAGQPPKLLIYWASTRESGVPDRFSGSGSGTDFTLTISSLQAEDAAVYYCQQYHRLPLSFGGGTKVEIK

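AAYL49 was designed without a model: most single CDR substitutions and a random sample of double and triple ones. Affinity was read by AlphaSeq, a pooled yeast mating assay with surface-displayed partners. Mating (16 h, 30 °C) was followed by selection of diploids and sequencing of their barcodes. Each replicate has its own calibration line, from reference interactions of the BCL2 family. Mating was done three times.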

Substitutions are numbered in sequence along the VH above, starting at 1 (not Kabat).
Every variant below is changed at T28 of the VH (sequential numbering).
Scale: log10 of Kd in nM, estimated from mating counts; low values are strong binders.
A mean of the replicates is given; it leaves out those without a signal.
An entry "nd" has no value in the source: the pair was not observed among the diploids in any replicate. This suggests poor binding but is not conclusive.
Three control strains display no target. For library AAYL49, 15% of the pairings with them gave a signal, with a median of 4.06 and one signal in twenty below 2.83, so weak values seen in few replicates may be background.
For reference, the parent read 0.65 as the reference entry and 4.11 (one replicate of three) as a member of this library.

With T28D+K65S+F105V the result was nd (0 of 3 replicates). The variant T28D+Y60W+S107D showed nd (0 of 3 replicates). With T28F+A101F+G103P the result was nd (0 of 3 replicates). The variant T28D+I51W+S53F gave 5.51 (2 of 3 replicates). With F27N+T28L+R57F the result was nd (0 of 3 replicates).

For T28S+T104A+D106S, the assay gave 0.63 (3 of 3 replicates). The variant T28C+G33A+I34T gave 4.37 (1 of 3 replicates). The variant T28M+G61T+D106E gave 1.06 (3 of 3 replicates). With T28P+D54A+T104A the result was nd (0 of 3 replicates). For T28S+Y32D+Y60D, the assay gave nd (0 of 3 replicates).

The variant T28N+S31E+S107L gave 1.49 (3 of 3 replicates). The variant T28P+N30L+F59H gave 2.11 (3 of 3 replicates). The variant T28A+G99L showed 5.20 (1 of 3 replicates). For T28R+Y60S+F105E, the assay gave nd (0 of 3 replicates). With T28A+I34N+S63P the result was 4.56 (1 of 3 replicates).

With T28M+G103S+F105Q the result was 3.54 (1 of 3 replicates). With T28K+V64Q+F105A the result was nd (0 of 3 replicates). With T28H+S35D+T104W the result was nd (0 of 3 replicates). The variant T28G+A101Q+A102Y gave 5.23 (1 of 3 replicates). The variant T28R+S31K+A102Y gave nd (0 of 3 replicates).

The variant T28V+S63E gave 2.42 (3 of 3 replicates). With T28Y+L29Y+V64L the result was nd (0 of 3 replicates). The variant T28S+D54N+G99V gave nd (0 of 3 replicates). The variant T28N+S35T+K65C showed nd (0 of 3 replicates). The variant T28G+I51W+A102E showed nd (0 of 3 replicates).

The variant T28R+N30I+Y60T gave nd (0 of 3 replicates). The variant T28Y+A102Q gave 2.36 (1 of 3 replicates). For F27C+T28P+N30H, the assay gave 3.89 (1 of 3 replicates). The variant T28S+R56C+F59A gave 0.35 (3 of 3 replicates). With T28C+Y52K+G103I the result was 4.54 (1 of 3 replicates).

The variant T28A+Y60M+A101I showed 1.04 (3 of 3 replicates). With T28W+I34V+D62P the result was nd (0 of 3 replicates). For G26R+T28V+S107E, the assay gave 1.77 (3 of 3 replicates). The variant F27C+T28C+F105I gave 3.81 (1 of 3 replicates). For T28K+L29S+T104W, the assay gave 4.36 (2 of 3 replicates).

With T28L+S31P+I51H the result was 3.69 (1 of 3 replicates). The variant T28P+S53P+F59S gave 1.00 (3 of 3 replicates). With T28R+I51C+S53F the result was nd (0 of 3 replicates). For F27K+T28R+R56Y, the assay gave nd (0 of 3 replicates). With T28Q+Y32M+S35V the result was nd (0 of 3 replicates).

Picked from the list: the 5 lowest averages where every replicate gave a value.

{"changes": "T28S+R56C+F59A", "mean, log10 nM": "0.35", "seen in": "3 of 3"}
{"changes": "T28S+T104A+D106S", "mean, log10 nM": "0.63", "seen in": "3 of 3"}
{"changes": "T28P+S53P+F59S", "mean, log10 nM": "1.00", "seen in": "3 of 3"}
{"changes": "T28A+Y60M+A101I", "mean, log10 nM": "1.04", "seen in": "3 of 3"}
{"changes": "T28M+G61T+D106E", "mean, log10 nM": "1.06", "seen in": "3 of 3"}

From the AlphaSeq antibody data of Engelhart et al. 2022 (doi:10.1038/s41597-022-01779-4), copy in the FLAb collection.